{"source": "patent US20080138834A1", "about": "“Cellular antagonists of GPCR physiology” (Institute Pasteur Korea, priority 2006, published 2008)", "tested_on": "endothelin A receptor", "details": "for IC50: read-out: IC50 on ETAR endocytosis, secondary screen, compound 0.1 to 50 μM; for IC50 / ETAR endocytosis/internalization compared to control: endothelin stimulated", "note": "Like-named read-outs stand apart in the source and are kept apart here."}
{"compound": "Cc1cc(O)c2c(=O)c3c(O)cc(O)c4c5c(O)cc(O)c6c(=O)c7c(O)cc(C)c8c1c2c(c34)c(c78)c65", "note": "[hypericine]", "values": [{"measurement": "effect on agonist dependent ETAR endocytosis (phenotype)", "result": "marginal effect"}]}
{"compound": "O=S(=O)(NCCNC/C=C/c1ccc(Br)cc1)c1cccc2cnccc12", "note": "[H-89]", "values": [{"measurement": "IC50", "result": 10000, "unit": "nM"}]}
{"compound": "Cn1cc(C2=C(c3cn(CCCSC(=N)N)c4ccccc34)C(=O)NC2=O)c2ccccc21", "note": "[Ro 31-8220]", "values": [{"measurement": "ETAR endocytosis/internalization compared to control", "setting": "10 μM compound", "result": 0.5, "unit": "fold"}, {"measurement": "IC50", "result": 1000, "unit": "nM"}]}
{"compound": "CCCCCCCCCCCCCCCC(=O)OC(CC(=O)O)C[N+](C)(C)C.[Cl-]", "note": "(stereo not drawn) [Palmitoyl DL carnitine chloride]", "values": [{"measurement": "ETAR endocytosis/internalization compared to control", "setting": "10 μM compound", "result": 0.5, "unit": "fold"}]}
{"compound": "CC1CNCCN1S(=O)(=O)c1cccc2cnccc12", "note": "(stereo not shown) [H7]", "values": [{"measurement": "effect on agonist dependent ETAR endocytosis (phenotype)", "setting": "10 μM compound, 40 nM endothelin-1", "result": "no significant effect"}]}
{"compound": "CC(=O)c1c(O)c(C)c(O)c(Cc2c(O)c3c(c(C(=O)/C=C/c4ccccc4)c2O)OC(C)(C)C=C3)c1O", "note": "[rottlerin]", "values": [{"measurement": "effect on agonist dependent ETAR endocytosis (phenotype)", "result": "no effect"}]}
{"compound": "CN(C)CCCn1cc(C2=C(c3c[nH]c4ccccc34)C(=O)NC2=O)c2ccccc21", "note": "[GF 109203X]", "values": [{"measurement": "effect on agonist dependent ETAR endocytosis (phenotype)", "result": "blocked"}]}
{"compound": "CC[C@H](C)[C@H](NC(=O)[C@H](CC(=O)O)NC(=O)[C@H](CC(C)C)NC(=O)[C@H](Cc1c[nH]cn1)NC(=O)[C@@H]1CSSC[C@H](N)C(=O)N[C@@H](CO)C(=O)N[C@H]2CSSC[C@H](NC(=O)[C@H](CCC(=O)O)NC(=O)[C@H](CCCCN)NC(=O)[C@H](CC(=O)O)NC(=O)[C@H](CCSC)NC(=O)[C@H](CC(C)C)NC(=O)[C@H](CO)NC(=O)[C@H](CO)NC2=O)C(=O)N[C@@H](C(C)C)C(=O)N[C@@H](Cc2ccc(O)cc2)C(=O)N[C@@H](Cc2ccccc2)C(=O)N1)C(=O)N[C@H](C(=O)N[C@@H](Cc1c[nH]c2ccccc12)C(=O)O)[C@@H](C)CC", "note": "[endothelin-1]", "values": [{"measurement": "EC50", "setting": "read-out: EC50 of endothelin-1 for agonist dependent ETAR activation (internalization)", "result": 3.4, "unit": "nM"}]}
{"compound": "CCCCCCCCCCCCCC(=O)O[C@@H]1[C@@H](C)[C@@]2(O)[C@@H](C=C(CO)C[C@]3(O)C(=O)C(C)=C[C@@H]23)[C@@H]2C(C)(C)[C@]12OC(C)=O", "note": "[PMA]", "values": [{"measurement": "ETAR internalization in the absence of stimulation", "result": "no internalization"}, {"measurement": "endothelin stimulated ETAR internalization after 24 h phorbol ester and washout", "result": "no longer increased"}, {"measurement": "increase of ET-1 induced ETAR endocytosis", "result": "> 50", "unit": "%"}, {"measurement": "level of the ETAR at the cell surface", "result": 2.6, "unit": "fold"}]}
